Experimental data taken from US9796710B2, “Dihydropyrrolopyridine inhibitors of ROR-gamma” (Vitae Pharmaceuticals, Inc., priority 2014, dated 2017).

Amino acid sequences for entries named in this document (tags omitted). Residues count along the entry.
UniProt P51449, 269-508: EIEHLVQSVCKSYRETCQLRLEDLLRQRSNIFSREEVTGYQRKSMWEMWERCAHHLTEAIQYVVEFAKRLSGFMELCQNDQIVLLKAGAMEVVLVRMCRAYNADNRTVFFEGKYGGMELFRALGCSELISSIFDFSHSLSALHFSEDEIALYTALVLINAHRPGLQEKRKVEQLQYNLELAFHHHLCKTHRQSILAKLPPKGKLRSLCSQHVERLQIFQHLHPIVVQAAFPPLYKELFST

Molecular target: recombinant RORγ Ligand Binding Domain (LBD) protein (Homo sapiens (Human), UniProt P51449)
Assay: Radio-Ligand RORγ Binding Assay (Assay 1)
Conditions: cell-free competition with 25-hydroxy [26,27-3H]-cholesterol; read-out: RORγ Binding Ki Range* (nM) (Assay 1)

**Q.** Which Ki does the source give for `CC[C@H]1c2ncc(C(=O)N[C@@H](CO)c3ccc(S(=O)(=O)CC)cn3)cc2CN1C[C@@H]1CC[C@@H](C(F)(F)F)OC1` (single isomer, unassigned) [Compound 6] here?
**A.** Its Ki is 100 to 1000 nM.
